Test results from the NIST ThermoML archive (doi:10.1007/s10765-007-0346-0).

Legend:
[1] = xn = mol fraction of the nth substance listed; details: 101 kPa, Liquid, Capillary tube (Ostwald / Ubbelohde) method
[2] = 101.33 kPa, Liquid, Capillary tube (Ostwald / Ubbelohde) method

CCCCOCCCC [dibutyl ether] + CCCCCCC
kinematic viscosity [m2/s], [1]
Details	283.15 K	298.15 K	313.15 K
x1 = 0.0479	6.828e-07	5.867e-07	5.078e-07
x1 = 0.0951	6.97e-07	5.979e-07	5.17e-07
x1 = 0.1907	7.247e-07	6.2e-07	5.355e-07
x1 = 0.2992	7.599e-07	6.468e-07	5.579e-07
x1 = 0.399	7.945e-07	6.723e-07	5.79e-07
x1 = 0.4989	8.296e-07	6.985e-07	6.001e-07
x1 = 0.5993	8.666e-07	7.269e-07	6.225e-07
x1 = 0.6973	9.023e-07	7.551e-07	6.445e-07
x1 = 0.7993	9.451e-07	7.861e-07	6.687e-07
x1 = 0.8986	9.862e-07	8.17e-07	6.933e-07
x1 = 0.9501	1.009e-06	8.332e-07	7.051e-07
x1 = 1	1.03e-06	8.563e-07	7.187e-07

CCCCOCCCC [dibutyl ether] + CCCCCC
kinematic viscosity [m2/s], [1]
Details	283.15 K	298.15 K	313.15 K
x1 = 0.0506	5.334e-07	4.626e-07	4.167e-07
x1 = 0.105	5.573e-07	4.812e-07	4.309e-07
x1 = 0.1974	5.962e-07	5.131e-07	4.53e-07
x1 = 0.2961	6.404e-07	5.51e-07	4.771e-07
x1 = 0.3967	6.883e-07	5.884e-07	5.079e-07
x1 = 0.4991	7.393e-07	6.293e-07	5.414e-07
x1 = 0.5974	7.897e-07	6.69e-07	5.757e-07
x1 = 0.7004	8.479e-07	7.126e-07	6.104e-07
x1 = 0.8272	9.2e-07	7.686e-07	6.552e-07
x1 = 0.9125	9.723e-07	8.077e-07	6.851e-07
x1 = 0.9514	9.985e-07	8.287e-07	7.017e-07

CCCCOCCCC [dibutyl ether]
[2]
Details	kinematic viscosity [m2/s]
283.15 K	1.03e-06
298.15 K	8.563e-07
313.15 K	7.187e-07
